Experimental data taken from PubChem BioAssay AID493056 (National Center for Advancing Translational Sciences (NCATS), 2011).
Only a part is listed here, and it is no random draw. Some structures show a salt or complex split into parts, the way the source records it. Activity calls are given as the source filed them. Cut-off read from the data, not from the text of the source: active = enhancement above about 30%; inactive = the rest.

Chains of the proteins cited; added tags and fusions are not shown.
UniProt P34981, whole entry: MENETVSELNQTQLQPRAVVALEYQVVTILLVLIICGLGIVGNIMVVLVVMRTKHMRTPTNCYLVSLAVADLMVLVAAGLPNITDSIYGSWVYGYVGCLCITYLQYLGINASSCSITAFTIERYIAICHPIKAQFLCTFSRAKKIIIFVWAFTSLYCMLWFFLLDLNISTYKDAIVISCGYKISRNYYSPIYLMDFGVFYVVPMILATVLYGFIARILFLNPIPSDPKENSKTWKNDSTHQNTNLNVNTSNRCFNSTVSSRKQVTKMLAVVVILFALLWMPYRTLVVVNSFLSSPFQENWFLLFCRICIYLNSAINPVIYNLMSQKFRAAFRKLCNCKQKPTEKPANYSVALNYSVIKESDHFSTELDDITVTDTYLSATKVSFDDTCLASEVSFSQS

biological target: Thyrotropin-releasing hormone receptor (Homo sapiens) (UniProt P34981); experiment: qHTS for Small Molecule Agonists and Allosteric Enhancers of Human TRH Receptor: Primary Screen for Enhancers; conditions: TRHR cells, fluo-8 calcium fluorescence, EC20 TRH enhancement; at 2 µM; active compounds read high; note: 0% is about no effect
Source text: NIH Chemical Genomics Center [NCGC] NIH Molecular Libraries Probe Centers Network [MLPCN] MLPCN Grant: MH089816-01 Assay Submitter (PI): Marvin Gershengorn This project aims to identify small drug-like molecules that activate (agonists) the thyrotropin releasing hormone (TRH) receptor (TRHR) or enhance its TRH-stimulated activity (allosteric enhancers). TRHR, a drug-accessible cell surface receptor expressed in specific brain regions, and its ligand TRH have been implicated in several central nervous system disorders, including depression and anxiety. Small molecule TRHR agonists or allosteric enhancers that are metabolically stable and able to cross the blood-brain barrier might serve as probes to elucidate the roles of brain TRH receptors in animal models, and might be valuable as lead compounds for the development of drugs to treat patients with central nervous system disorders. Upon TRHR-Gq activation in TRHR cells, intracellular calcium is released from stores in the endoplasmic reticulum. […] This primary screen measures compound-induced enhancement of an EC20 stimulation of the receptor by its native ligand.
For the HTS assay freshly prepared cells are plated at a density of 2000/well in 3 ul of complete DMEM medium containing 10% serum in 1536-well plates and cultured over night at 37 C in a humidified incubator with 5% CO2. The next day, 2 ul of a no wash calcium dye (ABD Bioquest) was added to the cells and plates were incubated at room temperature for 1 hour. For the assay, assay plates were loaded into the FDSS kinetic plate reader. A 10 cycle (1 second/cycle) baseline measurement is taken and then the FDSS online 1536 pintool delivers 23 nl of compound library (as well as TRH controls) to the plate. The plate is measured for kinetically at 1 cycle/sec for 180 seconds and is considered to be the agonist portion of the assay (eg, compounds which activate a positive calcium response during this portion are flagged as potential agonists). Following the 180 second read, 1 ul of either an EC20 (positive modulation assay) is delivered by an onboard pipette head. Measurements are taken kinetically for an additional 180 seconds. TRHR FDSS Screening Protocol 1. Reagent, 3 uL 2000 cells/well 1536 TC treated Black plate in media containing 10% FCS 2. Time, 18 hours, 33.5C 5% CO2 (cells grown at 37C) 3. Reagent, 2 uL ABD fluo-8 Ca dye 4. Time, 30 min-1.5hrs hours, Room temp (6 plates/batch) 5. Detector, EX 480/EM 530C, FDSS 10 cycles baseline (1sec/cycle) 6. Compound, 23 nL of stock solution from library 7. Detector, EX 480/EM 530C, FDSS 230 cycles (1sec/cycle) Agonist mode 8. Compound, 1 ul EC20 of TRH made up in HEPES HBSS, 10 nM final 9. Detector, EX 480/EM 530C, FDSS 100 cycles (1sec/cycle) Potentiator mode

Compound | enhancement
COc1cc(C(=O)NCC2(N3CCOCC3)CCCCC2)cc(OC)c1OC | inactive: 1.13%
COc1cc(OC)cc(C(=O)NCC2(N3CCOCC3)CCCCC2)c1 | inactive: -0.566%
CCC(CO)(C(=O)OC1CN2CCC1CC2)c1ccccc1 (configuration not stated) | inactive: -1.9%
CC(C)(C)OC(=O)N1CCC(Nc2ccccc2)CC1 | inactive: -3.23%
O=C(O)C1(Nc2ccccc2)CCN(Cc2ccccc2)CC1 | inactive: -1.58%
CCCOc1ccc(C(=O)NCC2(N(C)C)CCCCC2)cc1 | inactive: -6.17%
CCOc1ncccc1C(=O)NCC1(N2CCOCC2)CCCCC1 | inactive: 6.85%
CN1CCC(Nc2ccc(F)c(Cl)c2)CC1 | inactive: -4.59%
N#CC1(Nc2ccccc2)CCN(Cc2ccccc2)CC1 | inactive: -3.46%
O=C(NCC1(N2CCCCC2)CCCCC1)c1ccc(Cl)s1 | inactive: 3.3%
O=C(OC1CN2CCC1CC2)C1c2ccccc2Oc2ccccc21 (configuration not stated) | inactive: 22.7%
COc1ccc(Cl)cc1C(=O)NCC1(N2CCOCC2)CCCCC1 | inactive: 18.7%
CCOC(=O)N1CCC(Nc2ccc(OC)cc2)CC1 | inactive: 2.48%
O=C(NCC1(N2CCCCC2)CCCCC1)c1ccc(Cl)nc1 | inactive: 5.86%
Cc1cc(C)cc(N(C(=O)c2ccccc2)C2CCN(C(=O)OC(C)(C)C)CC2)c1 | inactive: -13.7%
O=C(NCC1(N2CCOCC2)CCCCC1)c1cc2ccccc2o1 | inactive: 8.71%
CSc1ccccc1C(=O)NCC1(N2CCCCC2)CCCCC1 | inactive: 6.37%
COc1ccc(C(=O)NCC2(N3CCCCC3)CCCCC2)cc1 | inactive: 5.78%
COc1ccc(C(=O)NCC2(N3CCCCC3)CCCCC2)c(OC)c1OC | inactive: -2.17%

Compound | enhancement
CC(C)(C)OC(=O)N1CCC(N(C(=O)c2ccccc2)c2ccc(F)cc2)CC1 | inactive: -5.15%
O=C(NCC1(N2CCCCC2)CCCCC1)c1ccc(=O)[nH]c1 | inactive: 1.52%
O=C(NCC1(N2CCCCC2)CCCCC1)c1cccs1 | inactive: -2.37%
CCOC(=O)N1CCC(Nc2cccc(C)c2)CC1 | inactive: 6.53%
COc1cc(C(=O)NCC2(N(C)C)CCCCC2)ccc1OC(F)F | inactive: 2.38%
Cc1ccc(OCC(C)C)c(CN(CCCl)CCCl)c1 | inactive: -9.92%
COc1ccccc1C(=O)NCC1(N2CCOCC2)CCCCC1 | inactive: -6.09%
CCCCOc1ccc(C(=O)NCC2(N3CCOCC3)CCCCC2)cc1 | inactive: -4.98%
O=C(NCC1(N2CCCCC2)CCCCC1)c1ccc(F)cc1 | inactive: -3.22%
CCOC(=O)N1CCC(Nc2ccc(F)cc2)CC1 | inactive: -0.291%
COc1ccc(NC2CCN(CCc3ccccc3)CC2)c(OC)c1 | inactive: -0.268%
O=C(NCC1(N2CCOCC2)CCCCC1)c1ccc(Cl)cc1 | inactive: -4.09%
CCOc1ccc(C)cc1CN(CCCl)CCCl | inactive: -9.16%
O=C(NCC1(N2CCOCC2)CCCCC1)c1cc(=O)[nH]c2ccccc12 | inactive: 1.84%
COc1cc(C(=O)NCC2(N3CCCCC3)CCCCC2)ccc1OC(F)F | inactive: -5.72%
COc1ccc(NC2CCN(C(=O)OC(C)(C)C)CC2)cc1 | inactive: 2.01%
CC(C)c1ccc(C(=O)NCC2(N3CCOCC3)CCCCC2)cc1 | inactive: 9.81%
CN1CCN(CCOC(=O)C(O)(c2ccccc2)c2ccccc2)CC1 | inactive: -2.27%
O=[N+]([O-])c1cc([N+](=O)[O-])c(NCC2CCS(=O)(=O)C2)c([N+](=O)[O-])c1 (configuration not stated) | inactive: 2.41%

Compound | enhancement
O=C(NCC1(N2CCCCC2)CCCCC1)c1cccc(C(F)(F)F)c1 | inactive: 17.1%
CCCOc1cccc(C(=O)NCC2(N3CCOCC3)CCCCC2)c1 | inactive: -9.68%
CCN1CCC(Nc2ccc(Cl)cc2)CC1 | inactive: -3.59%
N#CC1(Nc2ccccc2)CCN(CCc2ccccc2)CC1 | inactive: -1.82%
CSc1ccc(C(=O)NCC2(N3CCOCC3)CCCCC2)cc1 | inactive: 11.1%
CCOc1ccc(C(=O)NCC2(N3CCOCC3)CCCCC2)cc1 | inactive: -0.118%
O=C(NCC1(N2CCCCC2)CCCCC1)c1cccc([N+](=O)[O-])c1 | inactive: 0.918%
O=C(NCC1(N2CCCCC2)CCCCC1)c1ccc(OC(F)F)cc1 | inactive: 5.55%
CCCCOc1ccccc1C(=O)NCC1(N2CCOCC2)CCCCC1 | inactive: 0.0532%
O=C(NCC1(N2CCOCC2)CCCCC1)c1ccccc1Br | inactive: -5.24%
CCCOc1ccc(C(=O)NCC2(N(C)C)CCCCC2)cc1OC | inactive: -3.53%
O=C(OC1CN2CCC1CC2)c1ccc([N+](=O)[O-])cc1 (configuration not stated) | inactive: -0.833%
O=C(NCC1(N2CCCCC2)CCCCC1)c1cncc(Br)c1 | inactive: -4.64%
COc1ccc2c(c1O)-c1c(O)c(OC)cc3c1[C@H](C2)[N+](C)(C)CC3.O=[N+]([O-])c1cc([N+](=O)[O-])c([O-])c([N+](=O)[O-])c1[O-] | inactive: -5%
COc1cc(OC)c(C(=O)NCC2(N(C)C)CCCCC2)cc1OC | inactive: -3.81%
CC(C)c1ccc(NC2CCN(C(=O)OC(C)(C)C)CC2)cc1 | inactive: -1.89%
COc1ccc(CN(CCCl)CCCl)cc1Cl | inactive: 4.55%
CN(C)c1cccc(C(=O)NCC2(N3CCCCC3)CCCCC2)c1 | inactive: -3.15%
O=[N+]([O-])c1cc([N+](=O)[O-])c(OC2CCCCC2O)c([N+](=O)[O-])c1 (configuration not stated) | inactive: -5.63%
